The record followed here is article PMC8257627.

The experiment has as its target nucleosome core particle reconstituted with 207 bp DNA (NCP207), P0C0S8;P62807;Q71DI3;P62805. In words: fluorescence anisotropy. The following applies: chain shown with the change. Background: In fluorescence polarisation assays a small probe gives low polarisation when free and higher when bound to something large.

B1: PZP domain of AF10 (AF10PZP, aa 19–208), wild type, O54826 E179K (protein)
chain: KEMIGGCCVCSDERGWAENPLVYCDGHGCSVAVHQACYGIVQVPTGPWFCRKCESQERAARVRCELCPHKDGALKRTDNGGWAHVVCALYIPEVQFANVSTMEPIVLQSVPHDRYNKTCYICDEQGRESKAATGACMTCNKHGCRQAFHVTCAQFAGLLCKEEGNGADNVQYCGYCKYHFSKLKKSKRGS
The Kd is the concentration at which binding is half-saturated. Read a high Kd as a looser complex. As to B1, the dissociation constant Kd worked out at 14 µM.
